Values of other authors in patent publication US6413717B1, “Methods for indentifying anti-cancer agents” (Corixa Corporation, priority 1998, dated 2002).

Columns and labels:
human melanoma cells = details: IFN-β 2000 U and MEZ 10 ng/mL
mda-7 = details: IFN-β 2000 U and MEZ 10 ng/mL, agents known to modulate gene expression

B1: IFN-β: human fibroblast interferon, used as positive control (protein, UniProt P01574 22-187, looked up)
Interferon beta: MSYNLLGFLQRSSNFQCQKLLWQLNGRLEYCLKDRMNFDIPEEIKQLQQFQKEDAALTIYEMLQNIFAIFRQDSSSTGWNETIVENLLANVYHQINHLKTVLEEKLEKEDFTRGKLMSSLHLKRYYGRILHYLKAKEYSHCAWTIVRVEILRNFYFINRLTGYLRN
In the case of B1, the proliferative potential (human melanoma cells) is given as “irreversible loss of proliferative potential”, the terminal differentiation (human melanoma cells) is given as “induction of terminal differentiation” and the mda-7 expression (mda-7) is given as “induce an increase”.
